Data on 1 substance can be found in US20240207362A1 (priority 2022, published 2024).

For test [1], the system named is dcLVs. As to the kind of experiment: Contraction or dilation of exposed dcLVs after applying agents. In kind it is in vivo, mouse. The note with it: FIG. 39B.
In test [2] the test system is dcLVs.

Like-named read-outs stand apart in the source and are kept apart here. Some compounds may have been tested in ways that are not shown here.

In the case of sodium nitroprusside, the “amount of CSF tracer (in dcLV)” value in test [1] is “increased”. In addition, the “CSF drainage (CSF tracer in dcLN)” value in test [2] (30 μM of nitric oxide donor) is “no change”; in test [2] (low dosage of nitric oxide donor, 3 μM), “enhanced”.
